Results on 50 compounds are retold here after US7659277B2, “Ubiquitin ligase inhibitors and methods related thereto” (Proteologies, Ltd., priority 2003, dated 2010).

By UniProt entry, the sequences of proteins in these tests, tags left out.
UniProt Q00987, whole entry: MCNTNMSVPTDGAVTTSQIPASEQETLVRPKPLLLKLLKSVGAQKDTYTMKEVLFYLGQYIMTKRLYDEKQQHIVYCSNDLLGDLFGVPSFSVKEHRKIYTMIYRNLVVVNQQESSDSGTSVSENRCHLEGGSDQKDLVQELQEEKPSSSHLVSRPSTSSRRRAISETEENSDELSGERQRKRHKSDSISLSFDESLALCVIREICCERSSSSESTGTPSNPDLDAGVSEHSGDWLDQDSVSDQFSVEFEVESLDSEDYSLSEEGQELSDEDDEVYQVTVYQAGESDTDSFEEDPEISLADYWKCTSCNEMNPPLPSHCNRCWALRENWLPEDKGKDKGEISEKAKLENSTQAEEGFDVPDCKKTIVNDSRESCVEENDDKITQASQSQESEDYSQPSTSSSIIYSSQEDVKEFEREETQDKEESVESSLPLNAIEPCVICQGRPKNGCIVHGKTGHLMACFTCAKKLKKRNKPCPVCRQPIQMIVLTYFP

Common to all, as to type: biochemical
The target of one experiment is c-cbl (Homo sapiens, UniProt P22681). The experiment is described as follows: Selectivity (% A in 1 μM), ubiquitin ligase activity of c-cbl. The following applies: read-out: Selectivity (% A* in 1 μM) c-cbl.
The next experiment concerns E2 protein. Particulars: % activity at 1 μM compound; control is related to 100% activity; HTS protocol.
Another experiment addresses Hmdm2 (Homo sapiens, UniProt Q00987). Briefly: Selectivity (% A in 1 μM), ubiquitin ligase activity of Hmdm2. The following applies: read-out: Selectivity (% A* in 1 μM) Hmdm2.

For the compound `O=C1NC(=O)C(=Cc2ccc(-c3cc(Cl)ccc3Cl)o2)C(=O)N1` [Compound 1], the remaining activity at 1 µM at c-cbl was 120%. In addition, the “Selectivity (% A* in 1 μM) E2” value in the experiment on E2 protein stood at 100%.
With `C=CCN1C(=O)NC(=O)/C(=C\c2ccccc2)C1=O` [Compound 2], the remaining activity at 1 µM at c-cbl was 90%. Moreover, the “Selectivity (% A* in 1 μM) E2” value in the experiment on E2 protein is reported as 60%.
Turning to `CN(C)c1ccc(/C=C2/C(=O)NC(=O)N(C3CCCCC3)C2=O)cc1` [Compound 3], the remaining activity at 1 µM at c-cbl came to 82%. In addition, the “Selectivity (% A* in 1 μM) E2” value in the experiment with E2 protein stood at 52%.
Regarding `O=C1NC(=O)N(c2ccccc2)C(=O)/C1=C\c1ccc2c(c1)OCO2` [Compound 4], the remaining activity at 1 µM on c-cbl is 85%. Besides, the “Selectivity (% A* in 1 μM) E2” value in the experiment with E2 protein was found to be 63%.
In the case of `O=C1NC(=O)N(c2ccc(Br)cc2)C(=O)/C1=C/c1ccc(O)cc1` [Compound 5], the remaining activity at 1 µM at c-cbl amounted to 84%. Besides, the “Selectivity (% A* in 1 μM) E2” value in the experiment on E2 protein amounted to 74%.
Consider `O=C1NC(=S)N(c2ccccc2)C(=O)/C1=C\c1c(Cl)cccc1Cl` [Compound 6], for which the remaining activity at 1 µM on c-cbl was determined as 116%. Besides, the “Selectivity (% A* in 1 μM) E2” value in the experiment on E2 protein was 60%.
In the case of `COc1ccc(N2C(=O)NC(=O)/C(=C\c3ccc(Cl)cc3)C2=O)cc1` [Compound 7], the remaining activity at 1 µM on c-cbl turned out to be 88%. Also, the “Selectivity (% A* in 1 μM) E2” value in the experiment on E2 protein is listed as 84%.
As to `COc1ccc(N2C(=O)NC(=O)/C(=C\C=C\c3ccccc3)C2=O)cc1` [Compound 8], the remaining activity at 1 µM on c-cbl was 97%. For the same compound, the “Selectivity (% A* in 1 μM) E2” value in the experiment with E2 protein came to 87%.
As to `COc1cc(C=C2C(=O)N(C)C(=S)N(C)C2=O)ccc1O` [Compound 9], the remaining activity at 1 µM at c-cbl amounted to 88%. In addition, the “Selectivity (% A* in 1 μM) E2” value with E2 protein stood at 79%.
The corresponding values for `COc1ccccc1N1C(=O)NC(=O)/C(=C\C=C\c2ccccc2)C1=O` [Compound 10] are 97% and 93%.
Turning to `COc1ccc(/C=C2\C(=O)NC(=S)N(c3ccccc3)C2=O)cc1` [Compound 11], the remaining activity at 1 µM at c-cbl came out at 95%. For the same compound, the “Selectivity (% A* in 1 μM) E2” value in the experiment with E2 protein was 79%.
Taken in the same sequence, the figures for `C=CCN1C(=O)NC(=O)/C(=C/c2ccc(F)cc2)C1=O` [Compound 12] were 102% and 90%.
In the case of `O=C1C(=Cc2ccco2)C(=O)N(c2ccccc2)C(=S)N1c1ccccc1` [Compound 13], at c-cbl, the remaining activity at 1 µM is 75%. Besides, in the experiment with E2 protein, the “Selectivity (% A* in 1 μM) E2” value is listed as 54%.
Take `CCCCCCOc1ccc(C=C2C(=O)NC(=S)NC2=O)cc1` [Compound 15]: the remaining activity at 1 µM on c-cbl was found to be 106%. For the same compound, in the experiment with E2 protein, the “Selectivity (% A* in 1 μM) E2” value is 64%.
The corresponding values for `COc1cc(N/C=C2/C(=O)NC(=S)N(c3cccc(C)c3)C2=O)cc(OC)c1` [Compound 16] are 166% and 109%.
For `O=C1C=CC(=O)N1c1ccccc1Cl` [Compound 18], on c-cbl, the remaining activity at 1 µM was 105%. Further, the “Selectivity (% A* in 1 μM) E2” value in the experiment with E2 protein turned out to be 75%.
For the compound `O=C1C=CC(=O)N1c1ccc(Cl)cc1` [Compound 19], the remaining activity at 1 µM on c-cbl was determined as 107%. Besides, the “Selectivity (% A* in 1 μM) E2” value with E2 protein worked out at 78%.
The corresponding values for `O=C1C=CC(=O)N1c1ccc(OC(F)(F)C(F)F)c(N2C(=O)C=CC2=O)c1` [Compound 20] are 112% and 83%.
With `O=C1S/C(=C/c2ccc(-c3ccc([N+](=O)[O-])cc3Cl)o2)C(=O)N1c1ccccc1` [Compound 27], the remaining activity at 1 µM on c-cbl and at Hmdm2 was 122% throughout. Moreover, the “Selectivity (% A* in 1 μM) E2” value in the experiment with E2 protein was 112%.
Turning to `O=C(O)c1ccc(-c2ccc(/C=c3\sc4nc5ccccc5n4c3=O)o2)cc1` [Compound 28], the remaining activity at 1 µM at c-cbl was determined as 111%. Moreover, the “Selectivity (% A* in 1 μM) E2” value with E2 protein was 105%.
Turning to `N=C1NC(=O)/C(=C\c2ccc(-c3ccc(I)cc3)o2)S1` [Compound 29], on c-cbl, the remaining activity at 1 µM is 159%. The “Selectivity (% A* in 1 μM) E2” value in the experiment with E2 protein came to 50%.
Regarding `O=c1/c(=C/c2ccc(N3CCOCC3)cc2)sc2nc3ccccc3n12` [Compound 32], the remaining activity at 1 µM at c-cbl was 122%. For the same compound, the “Selectivity (% A* in 1 μM) E2” value with E2 protein is on record as 96%.
Turning to `S=C(c1ccc(-c2cc(Cl)ccc2Cl)o1)N1CCCCC1` [Compound 35], on c-cbl, the remaining activity at 1 µM turned out to be 106%. For the same compound, the “Selectivity (% A* in 1 μM) E2” value with E2 protein is 118%.
On to `O=C1C(=Cc2ccc(-c3ccc(Br)cc3)o2)C(=O)c2ccccc21` [Compound 38], for which the remaining activity at 1 µM at c-cbl came out at 432%. Moreover, in the experiment with E2 protein, the “Selectivity (% A* in 1 μM) E2” value is listed as 89%.
As to `CN(C)c1ccc(/C=C2\C(=O)N(c3ccc([N+](=O)[O-])cc3)N=C2N2CCOCC2)cc1` [Compound 42], at c-cbl, the remaining activity at 1 µM is 314%. Further, in the experiment with E2 protein, the “Selectivity (% A* in 1 μM) E2” value is recorded as 57%.
Regarding `Cc1ccc2nsnc2c1/N=C/c1c(O)ccc2ccccc12` [Compound 53], the remaining activity at 1 µM on c-cbl was 134%. Besides, in the experiment on E2 protein, the “Selectivity (% A* in 1 μM) E2” value was 99%.
Turning to `Cc1ccc(/N=C/c2cc(Br)cc(Br)c2O)c(C)c1` [Compound 54], the remaining activity at 1 µM at c-cbl worked out at 135%. Also, the “Selectivity (% A* in 1 μM) E2” value in the experiment on E2 protein was found to be 44%.
For `COc1ccc(/C=N/c2ccc(Nc3ccccc3)cc2)c2ccccc12` [Compound 55], the remaining activity at 1 µM on c-cbl came out at 70%. Further, in the experiment on E2 protein, the “Selectivity (% A* in 1 μM) E2” value worked out at 31%.
Taken in the same sequence, the figures for `Cc1ccc(/N=C/c2cccc(O)c2O)cc1C` [Compound 56] were 277% and 88%.
The corresponding values for `OCc1cccc(/N=C/c2cccc(O)c2O)c1` [Compound 57] are 153% and 259%.
Consider `CC(C)(C)c1ccc(O)c(/N=C/C=C/c2cccc([N+](=O)[O-])c2)c1` [Compound 59], for which the remaining activity at 1 µM at c-cbl was determined as 115%. Besides, the “Selectivity (% A* in 1 μM) E2” value with E2 protein is 90%.
The corresponding values for `Cc1cc([N+](=O)[O-])ccc1/N=C/c1ccc[nH]1` [Compound 70] are 127% and 98%.
On to `Cc1c(C(=O)/C=C/c2ccccc2)c2cc(O)ccc2n1C` [Compound 75], for which the remaining activity at 1 µM at c-cbl came out at 110%. Besides, the “Selectivity (% A* in 1 μM) E2” value with E2 protein came to 77%.
Regarding `Cc1c(C(=O)/C=C/c2cccs2)c2cc(O)ccc2n1C` [Compound 76], the remaining activity at 1 µM on c-cbl was determined as 96%. The “Selectivity (% A* in 1 μM) E2” value in the experiment on E2 protein was 53%.
With `O=[N+]([O-])c1ccc(CN2CCN(c3cccc(Cl)c3)CC2)o1` [Compound 80], the remaining activity at 1 µM at c-cbl amounted to 100%. Besides, in the experiment on E2 protein, the “Selectivity (% A* in 1 μM) E2” value is listed as 61%.
Taken in the same sequence, the figures for `CCCCOc1ccc(NC(=S)N2CCn3c4c(c(=O)c5cc(C)ccc53)CCC42)cc1` (centres unmarked) [Compound 81] were 66% and 80%.
In the case of `O=c1nc(-c2ccc(Br)cc2)cc(-c2ccc([N+](=O)[O-])cc2)[nH]1` [Compound 84], the remaining activity at 1 µM at c-cbl was 97%. Further, in the experiment with E2 protein, the “Selectivity (% A* in 1 μM) E2” value was 54%.
The corresponding values for `O=C(O)COc1ccc2c(c1)oc(=O)c1ccccc12` [Compound 85] are 88% and 55%.
For `Cc1cc(O)c(C(=O)/C=C/c2cccc(I)c2)c(=O)o1` [Compound 87], the remaining activity at 1 µM at c-cbl was found to be 63%. Moreover, the “Selectivity (% A* in 1 μM) E2” value with E2 protein came out at 80%.
In the case of `O=C(NC(C(Cl)(Cl)Cl)S(=O)(=O)c1ccccc1)c1ccc(Cl)cc1Cl` (centres unmarked) [Compound 88], the remaining activity at 1 µM on c-cbl is 112%. Also, in the experiment with E2 protein, the “Selectivity (% A* in 1 μM) E2” value is recorded as 94%.
Regarding `O=C1c2ccccc2-c2nc3nonc3nc21` [Compound 91], the remaining activity at 1 µM on c-cbl amounted to 151%. The “Selectivity (% A* in 1 μM) E2” value in the experiment on E2 protein worked out at 80%.
For `O=c1oc2ccccc2c(O)c1C(=S)Nc1ccccc1` [Compound 96], the remaining activity at 1 µM on c-cbl was 363%. For the same compound, the “Selectivity (% A* in 1 μM) E2” value in the experiment on E2 protein worked out at 73%.
Consider `O=C(Nc1cccc2c(NC(=O)C3C4CCCCC43)cccc12)C1C2CCCCC21` (centres unmarked) [Compound 97], for which, at c-cbl, the remaining activity at 1 µM is 148%. In the experiment on E2 protein, the “Selectivity (% A* in 1 μM) E2” value is listed as 89%.
Taken in the same sequence, the figures for `Cc1cc(OC(=O)Cn2c(=O)sc3ccccc32)ccc1Cl` [Compound 103] were 89% and 92%.
On to `COc1ccc(CC(C)NCc2ccccc2Cl)cc1` (centres unmarked) [Compound 107], for which, at c-cbl, the remaining activity at 1 µM is 101%. In addition, the “Selectivity (% A* in 1 μM) E2” value with E2 protein turned out to be 384%.
Taken in the same sequence, the figures for `O=C1NC(=O)/C(=C\c2ccc(-c3ccc(F)cc3)o2)S1` [Compound 108] were 135% and 104%.
In the case of `C=CCN1C(=O)/C(=C/c2c3ccccc3cc3ccccc23)SC1=S` [Compound 109], the remaining activity at 1 µM at c-cbl is 122%. Further, the “Selectivity (% A* in 1 μM) E2” value with E2 protein is 113%.
Turning to `CN(C)c1ccc(/C=C2\SC(=S)N(C3CCS(=O)(=O)C3)C2=O)cc1` (centres unmarked) [Compound 110], the remaining activity at 1 µM at c-cbl is 107%. In addition, in the experiment with E2 protein, the “Selectivity (% A* in 1 μM) E2” value amounted to 56%.
Regarding `COc1ccc(NC(=O)c2cc3cccc(N)c3cc2O)cc1` [Compound 114], the remaining activity at 1 µM on c-cbl is 96%. Besides, in the experiment with E2 protein, the “Selectivity (% A* in 1 μM) E2” value was 95%.
For the compound `CN1C(=O)/C(=C\c2ccc(-c3cccc([N+](=O)[O-])c3)o2)SC1=S` [Compound 115], the remaining activity at 1 µM at c-cbl amounted to 98%. Also, the “Selectivity (% A* in 1 μM) E2” value with E2 protein turned out to be 87%.
